Values of other authors as cited in patent US7648982B2 (priority 2003, dated 2010).

Conditions: in vivo

Structure (SMILES): CN1CC[C@]23c4c5ccc(O)c4O[C@H]2[C@@H](O)C=C[C@H]3[C@H]1C5 [morphine]
- concentration at the site of effect considered sub-therapeutic: < 37.5 ng/mL
